Data published in patent US20190350879A1, “METHOD OF TREATING PAIN USING RACEMIC MIXTURE OF S-KETAMINE AND R-KETAMINE” (priority 2017, published 2019).

Assay: Series of studies of intranasal racemic ketamine liquid formulation for acute and/or breakthrough pain
Settings: liquid formulation at 30 mg to 50 mg, Intranasal (IN) route

## CNC1(c2ccccc2Cl)CCCCC1=O (racemic) [racemic ketamine, 2-(2-chlorophenyl)-2-(methylamino)-cyclohexanone]
  ability to stop acute and/or breakthrough pain: has shown the ability of IN racemic ketamine to stop acute and/or breakthrough pain
